Experiment [1] deals with T1, MDM2-N (Homo sapiens, UniProt Q00987). The experiment in a line: Competitive capillary electrophoresis (CE) assay, compound vs fluorescently labelled p53 peptide (p53-F). Particulars: read-out: CE % inhibition at 300 μM. The class given is binding. The procedure: Capillary electrophoresis (CE) is an analytical technique used to study the interaction between biomacromolecules. In CE, electrophoresis is carried out in the interior of a narrow capillary. The technique separates ions based on their electrophoretic mobility with the use of applied voltage. The electrophoretic mobility is dependent on the charge of the molecule, the viscosity and the molecular size. CE is performed using a high voltage to produce a high resolution profile with a short migration time to separate numerous analytes. […] The assay provides a high sensitivity through the use of a Laser Induced Fluorescence (LIF) detector to enable the detection of weak binding fragments. This enables the interaction assay to be performed with a low labelled probe concentration and allows compounds to be screened at low concentrations. A competitive CE assay was used to detect competition between compounds and fluorescently labelled p53 peptide (p53-F) in MDM2-N/p53 binding site. The injection sample contained carboxyfluorescein (internal standard (10pM)) and p53-F (500pM) in TAPS/Tris (1mM) pH 8.0, DTT (1mM). […] After injection of the sample, a voltage of 10kV was applied and separation was carried out for 6.5min.
TR is the migration time of p53-F peak.
TL is the migration time of p53-F peak in the presence of MDM2-N + compound.

Experiment [2] addresses T1, MDM2-N. The experiment in a line: Fluorescence polarization (FP) competition assay with p53-F. The class given is binding. Particulars: read-out: FP % inhibition at 700 μM; compound 700 μM; MDM2-N 500 nM; p53-F 2 nM. The procedure:
Fluorescence polarization experiments were performed with a LJL Biosystems Analyst multi-plate reader in 50mM HEPES pH 7.5, 100mM NaCl, 1mM DTT. Fluorescein labelled p53 peptide (p53-F) was synthesised by Biomatiks. […] The competition experiments were carried out by mixing MDM2-N (500nM), p53-F (2nM) and test compound in black NBS plate. […] The inhibition (%) was calculated using the equation below. %Inhibition=100(AF-AL)/(AF-AU) Where: AF is the anisotropy of fully bound p53-F.
AU is the anisotropy of unbound p53-F.
AL is the anisotropy of p53-F in the presence of MDM2-N + compound.
(Polarisation of emitted light reports the rotation of a fluorescent probe.)

The structures appear in SMILES notation.

A word on the inhibition: it is the share of the control response that was lost under treatment.

Take `O=C(O)c1ccccc1Nc1ccccc1` [Compound 45]: the inhibition at 300 µM on MDM2-N [1] amounted to 43%. For the same compound, the inhibition at 700 µM on MDM2-N [2] worked out at 27%.

(Values after paper PMC4401541, “Structure- and Ligand-Based Virtual Screening Identifies New Scaffolds for Inhibitors of the Oncoprotein MDM2” (PLoS ONE, 2015).)
